The values below come from patent US11981617B2, “Ketamine pamoate and use thereof” (Alar Pharmaceuticals Inc., priority 2019, dated 2024).

The series deals with female Sprague Dawley (SD) rats. The experiment in a line: 3-month repeat-dose toxicology study. Particulars: high dose subchronic treatment for 12 weeks.

As to R, S-ketamine pamoate [KEP], the “pathological bladder and brain changes” value was “did not cause pathological bladder and brain changes”.
